Results published in IntAct's records for PubMed 21765415.

B1: Tax1-binding protein 1 (Homo sapiens), Q86VP1-2 (parent)
chain: MTSFQEVPLQTSNFAHVIFQNVAKSYLPNAHLECHYTLTPYIHPHPKDWVGIFKVGWSTARDYYTFLWSPMPEHYVEGSTVNCVLAFQGYYLPNDDGEFYQFCYVTHKGEIRGASTPFQFRASSPVEELLTMEDEGNSDMLVVTTKAGLLELKIEKTMKEKEELLKLIAVLEKETAQLREQVGRMERELNHEKERCDQLQAEQKGLTEVTQSLKMENEEFKKRFSDATSKAHQLEEDIVSVTHKAIEKETELDSLKDKLKKAQHEREQLECQLKTEKDEKELYKVHLKNTEIENTKLMSEVQTLKNLDGNKESVITHFKEEIGRLQLCLAEKENLQRTFLLTTSSKEDTCFLKEQLRKAEEQVQATRQEVVFLAKELSDAVNVRDRTMADLHTARLENEKVKKQLADAVAELKLNAMKKDQDKTDTLEHELRREVEDLKLRLQMAADHYKEKFKECQRLQKQINKLSDQSANNNNVFTKKTGNQQKVNDASVNTDPATSASTVDVKPSPSAAEADFDIVTKGQVCEMTKEIADKTEKYNKCKQLLQDEKAKCNKYADELAKMELKWKEQVKIAENVKLELAEVQDNYKELKRSLENPAERKMEDGADGAFYPDEIQRPPVRVPSWGLEDNVVCSQPARNFSRPDGLEDSEDSKEDENVPTAPDPPSQHLRGHGTGFCFDSSFDVHKKCPLCELMFPPNYDQSKFEEHVESHWKVCPMCSEQFPPDYDQQVFERHVQTHFDQNVLNFD
partner: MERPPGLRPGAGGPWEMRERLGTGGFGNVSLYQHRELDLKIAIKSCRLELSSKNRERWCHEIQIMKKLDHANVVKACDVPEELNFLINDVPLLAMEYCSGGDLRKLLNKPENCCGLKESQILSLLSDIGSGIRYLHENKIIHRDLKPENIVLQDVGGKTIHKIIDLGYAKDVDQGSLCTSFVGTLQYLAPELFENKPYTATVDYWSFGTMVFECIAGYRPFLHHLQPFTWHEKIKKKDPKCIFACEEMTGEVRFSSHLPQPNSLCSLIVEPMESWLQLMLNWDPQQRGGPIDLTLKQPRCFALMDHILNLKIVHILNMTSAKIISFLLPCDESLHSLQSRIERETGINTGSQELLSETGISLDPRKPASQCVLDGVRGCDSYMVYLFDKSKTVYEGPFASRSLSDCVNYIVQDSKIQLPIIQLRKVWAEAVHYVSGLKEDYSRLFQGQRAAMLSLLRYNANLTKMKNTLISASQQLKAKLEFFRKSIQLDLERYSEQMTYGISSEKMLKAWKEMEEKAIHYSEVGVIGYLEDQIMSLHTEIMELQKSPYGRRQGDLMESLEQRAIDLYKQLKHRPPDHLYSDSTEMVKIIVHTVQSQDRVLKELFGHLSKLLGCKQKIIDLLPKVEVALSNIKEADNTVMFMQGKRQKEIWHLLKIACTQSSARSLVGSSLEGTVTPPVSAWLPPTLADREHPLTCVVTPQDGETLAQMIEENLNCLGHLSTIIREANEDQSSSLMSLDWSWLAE

Variants of: B1
Details: with ikka_mouse Chuk

effect of a mutation on the interaction | Variant
disrupting interaction | S624A
